Laboratory results taken from PubChem BioAssay AID588689 (Southern Research Specialized Biocontainment Screening …, 2011).
The whole screen tested about 340,000 compounds, of which about 1,000 (0.29%) were called active. These results got no clear call from the source, so the numbers are uncertain. Rule as the data show it: inconclusive = inhibition above about 29% without an active follow-up result; inactive = below that.

Protein sequences, listed by entry. Tags and fused reporters are not part of them.
UniProt P29991, whole entry, looked up: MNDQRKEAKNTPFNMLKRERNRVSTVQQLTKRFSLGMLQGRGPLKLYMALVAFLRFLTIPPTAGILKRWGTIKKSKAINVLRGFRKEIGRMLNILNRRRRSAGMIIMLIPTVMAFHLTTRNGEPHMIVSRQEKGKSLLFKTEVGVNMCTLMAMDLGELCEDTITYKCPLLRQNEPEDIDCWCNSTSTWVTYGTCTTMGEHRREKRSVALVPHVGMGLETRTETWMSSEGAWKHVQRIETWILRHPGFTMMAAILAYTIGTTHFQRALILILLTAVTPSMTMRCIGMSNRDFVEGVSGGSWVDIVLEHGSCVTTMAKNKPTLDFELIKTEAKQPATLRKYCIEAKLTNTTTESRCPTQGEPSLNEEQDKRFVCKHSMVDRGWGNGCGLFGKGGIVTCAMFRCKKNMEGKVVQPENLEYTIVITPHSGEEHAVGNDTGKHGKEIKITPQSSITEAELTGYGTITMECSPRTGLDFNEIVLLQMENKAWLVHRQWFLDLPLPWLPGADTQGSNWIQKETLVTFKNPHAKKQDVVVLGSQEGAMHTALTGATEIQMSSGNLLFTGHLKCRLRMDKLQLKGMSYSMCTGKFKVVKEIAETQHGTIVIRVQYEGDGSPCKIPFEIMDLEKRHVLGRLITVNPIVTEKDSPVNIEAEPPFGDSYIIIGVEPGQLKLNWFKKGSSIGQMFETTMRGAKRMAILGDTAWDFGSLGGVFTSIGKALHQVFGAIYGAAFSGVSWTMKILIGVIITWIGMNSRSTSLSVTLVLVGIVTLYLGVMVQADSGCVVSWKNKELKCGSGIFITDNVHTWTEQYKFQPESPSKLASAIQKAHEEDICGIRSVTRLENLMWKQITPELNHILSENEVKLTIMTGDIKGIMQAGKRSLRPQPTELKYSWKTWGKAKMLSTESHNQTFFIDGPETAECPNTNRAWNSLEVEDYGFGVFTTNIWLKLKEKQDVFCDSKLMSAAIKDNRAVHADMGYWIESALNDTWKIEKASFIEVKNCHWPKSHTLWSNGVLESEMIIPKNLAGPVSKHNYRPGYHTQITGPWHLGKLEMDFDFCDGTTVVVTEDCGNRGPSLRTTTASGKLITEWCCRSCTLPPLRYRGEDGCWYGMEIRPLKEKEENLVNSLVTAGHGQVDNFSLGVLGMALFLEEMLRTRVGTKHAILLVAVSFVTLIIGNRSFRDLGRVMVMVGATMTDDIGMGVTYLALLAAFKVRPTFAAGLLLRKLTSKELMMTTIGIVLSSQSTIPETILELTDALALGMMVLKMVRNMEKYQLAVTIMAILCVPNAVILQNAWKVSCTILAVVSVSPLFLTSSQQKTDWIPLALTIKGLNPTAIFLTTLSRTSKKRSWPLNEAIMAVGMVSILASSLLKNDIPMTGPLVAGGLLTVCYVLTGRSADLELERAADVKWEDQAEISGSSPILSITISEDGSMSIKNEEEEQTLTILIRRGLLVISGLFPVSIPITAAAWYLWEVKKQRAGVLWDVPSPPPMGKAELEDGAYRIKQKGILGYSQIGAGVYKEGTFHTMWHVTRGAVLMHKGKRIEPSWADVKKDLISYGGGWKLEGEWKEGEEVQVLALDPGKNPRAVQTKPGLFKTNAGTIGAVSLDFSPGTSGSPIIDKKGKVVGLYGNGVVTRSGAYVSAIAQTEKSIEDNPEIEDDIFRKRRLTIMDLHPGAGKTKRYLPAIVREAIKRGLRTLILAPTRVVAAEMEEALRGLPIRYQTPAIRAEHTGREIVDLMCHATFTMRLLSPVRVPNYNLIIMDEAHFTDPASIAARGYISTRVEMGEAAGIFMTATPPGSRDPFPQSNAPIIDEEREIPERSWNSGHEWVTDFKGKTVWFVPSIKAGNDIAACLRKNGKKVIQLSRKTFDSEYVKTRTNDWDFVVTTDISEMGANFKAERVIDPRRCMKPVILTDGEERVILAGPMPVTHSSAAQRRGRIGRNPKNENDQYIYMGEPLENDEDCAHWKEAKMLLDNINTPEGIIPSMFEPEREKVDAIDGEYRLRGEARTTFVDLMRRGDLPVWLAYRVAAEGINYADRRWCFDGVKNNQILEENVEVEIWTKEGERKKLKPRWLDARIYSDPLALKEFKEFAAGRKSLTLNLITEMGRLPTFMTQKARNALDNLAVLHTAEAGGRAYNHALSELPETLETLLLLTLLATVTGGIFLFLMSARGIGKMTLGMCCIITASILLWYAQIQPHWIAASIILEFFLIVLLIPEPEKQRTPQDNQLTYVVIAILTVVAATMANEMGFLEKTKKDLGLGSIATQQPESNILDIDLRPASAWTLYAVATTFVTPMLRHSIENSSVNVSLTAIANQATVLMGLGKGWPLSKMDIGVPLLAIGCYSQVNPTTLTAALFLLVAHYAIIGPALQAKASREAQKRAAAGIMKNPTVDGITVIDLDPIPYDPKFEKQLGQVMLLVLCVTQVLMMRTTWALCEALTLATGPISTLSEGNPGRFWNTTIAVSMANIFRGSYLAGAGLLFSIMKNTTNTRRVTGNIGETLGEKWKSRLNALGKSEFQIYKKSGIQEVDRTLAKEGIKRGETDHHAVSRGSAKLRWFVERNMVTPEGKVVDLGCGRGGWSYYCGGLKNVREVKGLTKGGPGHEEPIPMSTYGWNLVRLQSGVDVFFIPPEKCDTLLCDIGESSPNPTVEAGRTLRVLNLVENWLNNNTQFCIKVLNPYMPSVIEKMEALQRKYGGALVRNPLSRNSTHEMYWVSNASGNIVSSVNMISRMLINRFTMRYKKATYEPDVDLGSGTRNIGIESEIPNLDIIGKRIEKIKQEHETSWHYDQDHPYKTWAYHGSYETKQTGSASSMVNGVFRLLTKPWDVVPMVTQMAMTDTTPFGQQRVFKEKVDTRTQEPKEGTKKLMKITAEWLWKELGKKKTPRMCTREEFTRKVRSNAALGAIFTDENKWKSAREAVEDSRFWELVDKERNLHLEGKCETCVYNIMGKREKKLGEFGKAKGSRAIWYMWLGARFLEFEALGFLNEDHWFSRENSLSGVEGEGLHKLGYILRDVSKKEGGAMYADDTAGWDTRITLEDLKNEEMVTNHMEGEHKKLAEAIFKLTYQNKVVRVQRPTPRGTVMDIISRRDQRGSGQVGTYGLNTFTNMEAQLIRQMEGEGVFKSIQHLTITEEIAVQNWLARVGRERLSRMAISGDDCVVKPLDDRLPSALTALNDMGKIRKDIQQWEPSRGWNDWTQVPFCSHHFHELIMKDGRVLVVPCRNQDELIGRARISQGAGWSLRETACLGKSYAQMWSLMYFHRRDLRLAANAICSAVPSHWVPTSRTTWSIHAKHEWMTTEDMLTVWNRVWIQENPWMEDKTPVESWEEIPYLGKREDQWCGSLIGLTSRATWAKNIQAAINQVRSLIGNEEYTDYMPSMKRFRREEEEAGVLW

The molecules below were run against Genome polyprotein (Dengue virus type 2 (strain 16681-PDK53)) (UniProt P29991) (assay: flavivirus cap methylation enzyme inhibition – biochemical, confirmation dose response, primary screen (AID 588689)). Details: Dengue-2 NS5 methyltransferase capping enzyme assay, at 25 µM, stronger effect = higher value.

Row | Compound | inhibition
1 | Nc1cccc2c([As](=O)(O)O)cccc12 | inconclusive: 49%
2 | CS(=O)(=O)c1cc([N+](=O)[O-])c2no[n+]([O-])c2c1 | inconclusive: 55.7%
